65 compounds from PubChem BioAssay AID493014 (National Center for Advancing Translational Sciences (NCATS), 2011) can be followed below.

Only a part is listed here, and it is no random draw. Inconclusive results are not listed. Calls of active or inactive are those of the source. The call rests on the fitted dose curve; in most records, active means well fitted inhibition curve with a large enough effect in the signal ratio, with a control signal flat (not every such curve was filed as active); inconclusive means small, poorly fitted or top-dose-only effect, or effect the other way, or a change in a side signal; inactive means flat fitted curve, though single readings scatter; the % refers to the signal ratio.

This experiment can be described thus: qHTS Assay to Find Inhibitors of Chronic Active B-Cell Receptor Signaling. As to conditions: ABC-DLBCL IkBa-CBG/CBR reporter, luminescence ratio (green luciferase fused to IkBa over red control in TMD8 lymphoma cells), 4 h; at 46.1 µM (top of the series). The text has this: NIH Molecular Libraries Probe Production Network [MLPCN] NIH Chemical Genomics Center [NCGC] MLPCN Grant: 1 R03 DA031086-01A1 PI Name: Dr. R. Eric Davis NCGC Assay Overview: Diffuse large B-cell lymphoma (DLBCL) is the most common category of non-Hodgkin lymphoma, with ~20,000 new cases per year in the United States. DLBCL should be regarded as a collection of different neoplasms. Microarray gene expression analysis has defined two principal types of DLBCL, named for their similarity to normal B cell stages or activation states: a germinal center B-cell (GCB) type, and an activated B-cell (ABC) type. In ABC-DLBCL, a constitutive high-level activity of the NF-kappaB family of transcription factors has been observed (1) and NF-kappaB target genes are more highly expressed in ABC primary tumors than in GCB tumors. Functional studies have shown a constitutive high-level activity of the IkappaB (inhibitor of kappa-B) kinase (IKK) complex. […] Further analysis of DLBCL primary tumors for NF-kappaB target gene expression imply that although CARD11 is required for constitutive IKK activity in all ABC-DLBCL lines, mutations in CARD11 may be the root cause of IKK activation only in lines or tumors with such mutations. In other words, CARD11 mutations may explain NF-kappaB activation in only 10% of ABC-DLBCL cases. […] This process has been termed 'chronic active BCR signaling' (CABS). The goal of this screen is to find small-molecule inhibitors of the CABS pathway found in ABC-DLBCL lines using a cell-based assay that measures IkappaBalpa stability, which has already been extensively validated in the OCI-Ly3 line (PubChem AID:445; REF: 4). […] The assay uses green (CBG68) and red (CBR) emitting beetle luciferases [Chroma-GloTM developed by Promega Corp.] where the green luciferase is fused to IkappaBalpha and the red luciferase is present in its native state. Both luciferase genes are stably present in the TMD8 human ABC DLBCL cell line, but their expression is under the control of tetracycline-inducible promoters. Following the addition of doxycycline to induce expression of the luciferases, the green luminescence in control cultures rises only slowly because the CBG fusion partner IkappaBalpha is targeted by IKK activity for rapid degradation. In contrast, green luminescence rises rapidly in the presence of proteasome inhibitors or IKK inhibitors. The rise in red luminescence of CBR is not affected by proteasome or IKK inhibitors, and serves as normalization for cell number and nonspecific effects. Compounds were screened as a concentration-titration series that ranged from 46 uM to 3 nM.
NCGC Assay Protocol Summary: Cells were seeded in 1536-well plates at 5000 cells/4uL in IMDM medium containing 0.5% FBS, w/o phenol red, 1% penicillin/streptomycin. Then, 23 nL of compounds or DMSO were delivered to each well using a pin tool. One uL 20ng/ml doxycycline was then dispensed into white solid 1536-well plates and the plates were incubated at 37C/5% C02 in a cell incubator for 4 hrs. Then 4 uL luminescent substrate mix (in-house prepared: 150 mM Tris-Cl, pH 7.6, 3 mM MgCl2, 1% Triton X-100, 5 mM DTT, 0.2 mM CoA, 0.15 mM ATP, 5 mM D-luciferin, final concentrations) was added to each well. The plate was incubated at r.t. for 10-15 min. The plates were measured on a ViewLux plate reader for green luminescence (540/20 nm filter) and red luminescence (618/8 nm filter). The green and red luminescent signals were corrected for red and green luminescence filter overlap using previously determined filter calibration constants (determined using the procedure outlined in the Promega Technical Manual; REF 4). The %Activity was determined from the ratio of corrected green/red luminescent values. MG132 were used as control. […] Red luminescent %Activity was normalized to the difference between red luminesence in basal cells (0%Activity) and zero luminescence (-100% Activity). […]
(Quantitative high-throughput screening tests each substance at several concentrations.)
On to `Cc1cccc(C)c1OP(C)(N)=O` (stereo not given), for which the activity change, negative = inhibition is inactive: -0.664%.
Then `CC(C)(C)c1ccc(OP(C)(=O)Nc2ccc(SC(F)(F)F)cc2)cc1` (stereo not given), with inactive: -1.27%.
With `Cc1cc(C)cc(OP(C)(N)=O)c1` (stereo not given) the figure was inactive: 5.72%; with `COc1ccc(OP(C)(=O)Nc2cccc(F)c2)cc1` (stereo not given), inactive: -7.69%.
With `COc1ccccc1OP(C)(=O)Nc1cc(Cl)ccc1C` (stereo not given) the figure was inactive: -14%; with `Cc1ccc(NP(C)(=O)Oc2ccccc2)c(C)c1` (stereo not given), inactive: 12.9%.
For `CCOC(=O)c1ccc(NP(C)(=O)Oc2ccccc2)cc1` (stereo not given), the activity change, negative = inhibition is inactive: 2.15%.
Then `Cc1cc(C)cc(OP(C)(=O)Nc2ccc(SC(F)(F)F)cc2)c1` (stereo not given), with inactive: -11.4%; and `CP(=O)(NC(=O)Nc1ccccc1)Oc1ccccc1` (stereo not given), with inactive: -1.87%; and `CCc1ccc(OP(C)(=O)N2CCN(c3ccc([N+](=O)[O-])cc3)CC2)cc1` (stereo not given), with inactive: 8.34%.
Then `CP(=O)(Oc1ccccc1)OC(c1ccccc1)C(F)(F)F` (stereo not given), with inactive: 0.491%; and `Cc1cccc(C)c1OP(C)(=O)Nc1ccc(SC(F)(F)F)cc1` (stereo not given), with inactive: -6.16%.
`CP(=O)(Nc1ccc(SC(F)(F)F)cc1)Oc1ccc(Cl)cc1` (stereo not given): the activity change, negative = inhibition is inactive: -0.0308%.
Then `CCOC(=O)c1ccc(NP(C)(=O)Oc2ccc(OC)cc2)cc1` (stereo not given), with inactive: -14.3%; and `CCOP(C)(=S)SCC(=O)NC(C)C(=O)O` (stereo not given), with inactive: 4.48%; and `CP(=O)(Nc1ccccc1Br)Oc1ccccc1` (stereo not given), with inactive: 1.4%.
With `COc1ccccc1OP(C)(=O)Nc1ccccc1` (stereo not given) the figure was inactive: 2.9%; with `CP(=S)(Nn1cnnc1)Oc1ccccc1` (stereo not given), inactive: -12%; with `O=[N+]([O-])c1cc([N+](=O)[O-])c(Nc2nnnn2CCO)c([N+](=O)[O-])c1`, inactive: 8.98%.
With `CCCOc1ccc(NP(C)(=O)Oc2ccc(Cl)cc2)cc1` (stereo not given) the figure was inactive: 1.1%; with `CP(=O)(Nc1ccc(SC(F)(F)F)cc1)Oc1ccccc1` (stereo not given), inactive: -11.4%; with `COc1ccccc1OP(C)(=O)Nc1c(C)cccc1C` (stereo not given), inactive: 4.77%.
As for `CN1CCCCC1COC(=O)C1(O)c2ccccc2CCc2ccccc21` (stereo not given), the activity change, negative = inhibition is inactive: 4.72%.
Turning to `O=[N+]([O-])c1cc([N+](=O)[O-])c(-n2nnc3ccccc32)c([N+](=O)[O-])c1`, the activity change, negative = inhibition was inactive: 1.83%.
With `Cc1nc2ccc3ccccc3c2s1.O=[N+]([O-])c1cc([N+](=O)[O-])c(O)c([N+](=O)[O-])c1` the figure was inactive: -1.36%; with `CCOC(=O)c1ccc(NP(C)(=O)Oc2cc(C)cc(C)c2)cc1` (stereo not given), inactive: -16.7%.
In the case of `Cc1cc(C)cc(OP(C)(=O)Nc2ccc(C)cc2C)c1` (stereo not given), the activity change, negative = inhibition was inactive: -20.2%.
Then `COc1ccccc1OP(C)(=O)Nc1cccc(Br)c1` (stereo not given), with inactive: 0.702%; and `Cc1ccc(C)c(NP(C)(=O)Oc2ccccc2)c1` (stereo not given), with inactive: 0.89%.
Then `Cc1cc(C)cc(OP(C)(=O)Nc2ccccn2)c1` (stereo not given), with inactive: 8.42%; and `CP(=O)(Nc1cccc(Br)c1)Oc1ccccc1` (stereo not given), with inactive: -3.96%.
Then `CCOC(=O)c1ccc(NP(C)(=O)Oc2ccc(F)cc2)cc1` (stereo not given), with inactive: 0.148%.
For `COc1ccc(OP(C)(=O)Nc2ccc(SC(F)(F)F)cc2)cc1` (stereo not given), the activity change, negative = inhibition is inactive: -17.5%.
With `CCCCCOc1ccc(NP(C)(=O)Oc2ccc(Cl)cc2Cl)cc1` (stereo not given), the activity change, negative = inhibition was inactive: 13.5%.
Take `CCN(CC)CCCOC(=O)C(O)(c1ccccc1)C1CCCCC1` (stereo not given): the activity change, negative = inhibition is inactive: -13.9%.
On to `CP(=O)(Nc1ccccc1F)Oc1ccccc1` (stereo not given), for which the activity change, negative = inhibition is inactive: 2.18%.
Then `CC(C)c1ccc(OP(C)(=O)Nc2ccc(SC(F)(F)F)cc2)cc1` (stereo not given), with inactive: -3.91%.
Then `O=C(OCCN1CCN(CCOCc2ccccc2)CC1)C(O)(c1ccccc1)c1ccccc1`, with inactive: -3.76%; and `CCOP(C)(=S)SCC(=O)NC(C)(CC)C(=O)O` (stereo not given), with inactive: 2.2%.
With `CP(=O)(Nc1ccc(SC(F)(F)F)cc1)Oc1ccc(F)cc1` (stereo not given) the figure was inactive: -0.874%; with `Cc1ccccc1NP(C)(=O)Nc1ccccc1C`, inactive: -0.869%; with `CP(=O)(Nc1ccc2c(c1)OCCO2)Oc1ccccc1` (stereo not given), inactive: -31.5%.
For the compound `CN(C)CCOC(=O)C(O)(c1ccccc1)C1CCCCC1` (stereo not given), the activity change, negative = inhibition is inactive: 1.58%.
With `COc1ccc(NP(C)(=O)Oc2ccccc2OC)cc1` (stereo not given) the figure was inactive: 3.53%; with `O=[N+]([O-])c1ccc(OP2(=O)COCCO2)cc1` (stereo not given), inactive: -7.98%.
For the compound `Cc1cc(-c2cccc3ccccc23)c(C)cn1.O=[N+]([O-])c1cc([N+](=O)[O-])c(O)c([N+](=O)[O-])c1`, the activity change, negative = inhibition is inactive: -0.81%.
On to `CCOC(=O)c1ccc(NP(C)(=O)Oc2ccc(Cl)cc2)cc1` (stereo not given), for which the activity change, negative = inhibition was inactive: -1.44%.
Then `CP(=O)(OC12CC3CC(CC(C3)C1)C2)OC12CC3CC(CC(C3)C1)C2`, with inactive: -6.18%.
Turning to `COc1ccccc1OP(C)(=O)Nc1c(C)n(C)n(-c2ccccc2)c1=O` (stereo not given), the activity change, negative = inhibition is inactive: 1.81%.
With `CCc1ccc(OP(C)(=O)Nc2cccnc2)cc1` (stereo not given) the figure was inactive: -0.759%; with `CCN(CC)CC(O)COC(=O)C(O)(c1ccccc1)C1CCCCC1` (stereo not given), inactive: 2%.
Then `COc1ccccc1OP(C)(=O)Nc1ccccc1Br` (stereo not given), with inactive: 0.276%.
Then `CC(C)(C)c1ccc(OP(C)(=O)O)cc1`, with inactive: -16%; and `CP(=O)(Nc1ccc(Cl)cc1)Oc1ccc(F)cc1` (stereo not given), with inactive: -3.51%; and `COc1ccc(OP(C)(=O)Nc2ccccn2)cc1` (stereo not given), with inactive: 7.3%.
For `CN(C)CCOC(=O)C(O)(c1ccccc1)C1CCCC1` (stereo not given), the activity change, negative = inhibition is inactive: -2.24%.
Then `COc1ccccc1OP(C)(=O)Nc1ccc(C)cc1C` (stereo not given), with inactive: 4.98%; and `CP(=O)(Nc1ccccn1)Oc1ccccc1` (stereo not given), with inactive: -1.32%; and `CCc1ccc(OP(C)(=O)O)cc1`, with inactive: -0.427%.
Turning to `Cc1c(NP(C)(=O)Oc2ccc(C(C)C)cc2)c(=O)n(-c2ccccc2)n1C` (stereo not given), the activity change, negative = inhibition was inactive: -10.4%.
With `COc1ccccc1OP(C)(=O)Nc1ccc(C)c(C)c1` (stereo not given) the figure was inactive: -12.5%; with `COc1ccc(OP(C)(=O)Nc2ccccc2Br)cc1` (stereo not given), inactive: -3.3%; with `Cc1cc(C)cc(OP(C)(=O)Nc2cccc(C(F)(F)F)c2)c1` (stereo not given), inactive: -2.58%.
Then `CP(=O)(OCCOc1ccccc1)OCCOc1ccccc1`, with inactive: -0.188%; and `Cc1nc2ccc3ccccc3c2o1.O=[N+]([O-])c1cc([N+](=O)[O-])c(O)c([N+](=O)[O-])c1`, with inactive: -13.8%.
